# Experimental data: publication PMC5995306
# Experiments:
# Tet-SL-YFP = Tet-SL-YFP (UniProt P04637); test: native MS
# YFP-SL-Tet = YFP-SL-Tet (UniProt P04637); test: native MS
stoichiometry N (Tet-SL-YFP),stoichiometry N (YFP-SL-Tet),Substance
4,–,Tet-SL-YFP (from UniProt P04637 325-356)
–,4,YFP-SL-Tet (from UniProt P04637 325-356)
